Values of other authors in article PMC11852235, “Discovery of Effective Inhibitors Against Phosphodiesterase 9, a Potential Therapeutic Target of Alzheimer’s Disease with Antioxidant Capacities” (Antioxidants, 2025).

Tested on: PDE9
Details: read-out: PDE9 IC50; Figure 1, current PDE9 inhibitors; cited from earlier work

In the case of `C[C@@H]1CN(Cc2ncccn2)C[C@H]1c1nc2c(cnn2C2CCOCC2)c(=O)[nH]1`, the IC50 is given as 8.3 nM.
